Test results taken from patent US20230312610A1, “Anti-Microbial Compositions” (5D HEALTH PROTECTION GROUP LTD, priority 2020, published 2023).

Assay: Concentration studies: loading of complex in aqueous solution
Format: physicochemical
Details: clear aqueous solution of the complex as prepared
Description: 1.53 g DTPA was dissolved in 4.37 g demineralised water plus 2.10 g 40% NaOH to produce a DTPA sodium salt solution. 3.29 g silver nitrate was dissolved in 4.71 g demineralised water to produce a silver nitrate solution. 2.58 g copper sulphate pentahydrate was dissolved in 16.09 g demineralised water to produce a copper sulphate solution. Silver nitrate solution was added to the DPTA solution with vigorous stirring. A milky white dispersion was formed. Copper sulphate solution was added to the white dispersion. With vigorous stirring the white precipitate dissolved to give a clear, blue liquid, signifying the formation of the silver/copper DTPA mixed metal complex (MMC). […] The theoretical concentration of silver/copper DTPA MMC is 9.2% (0.15 mol/Kg). Comparative concentration studies performed on Ag/Cu EDTA MMC examples provided theoretical concentration values of 0.07-0.09 mol/Kg.
1.11 g DTPA was dissolved in 4.59 g demineralised water plus 1.3 g 40% NaOH to produce a DTPA sodium salt solution. 2.39 g silver nitrate was dissolved in 4.61 g demineralised water to produce a silver nitrate solution. 2.08 g zinc sulphate monohydrate was dissolved in 15.92 g demineralised water to produce a zinc sulphate solution. Silver nitrate solution was added to the DTPA solution with vigorous stirring. A milky white dispersion was formed. Zinc sulphate solution was added to the white dispersion. […]

total soluble solids content of the solution	Compound
7.2 % w/w	O=C([O-])CN(CCN(CC(=O)[O-])CC(=O)[O-])CCN(CC(=O)[O-])CC(=O)[O-].[Ag+].[Ag+].[Al+3] [Ag2Al(DTPA)]
24.7 % w/w	O=C([O-])CN(CCN(CC(=O)[O-])CC(=O)[O-])CCN(CC(=O)[O-])CC(=O)[O-].[Ag+].[Ag+].[Ag+].[Zn+2] [silver/zinc-DTPA mixed metal complex, Ag3ZnDPTA]
